For the experiment, the target named is CD47 (UniProt Q08722 19-323). As to the kind of experiment: FACS. For orientation: A flow cytometer gives signals particle by particle.

The chains behind the UniProt entries cited, without tags or fusion partners. Residues count along the entry.
UniProt Q08722, 19-323: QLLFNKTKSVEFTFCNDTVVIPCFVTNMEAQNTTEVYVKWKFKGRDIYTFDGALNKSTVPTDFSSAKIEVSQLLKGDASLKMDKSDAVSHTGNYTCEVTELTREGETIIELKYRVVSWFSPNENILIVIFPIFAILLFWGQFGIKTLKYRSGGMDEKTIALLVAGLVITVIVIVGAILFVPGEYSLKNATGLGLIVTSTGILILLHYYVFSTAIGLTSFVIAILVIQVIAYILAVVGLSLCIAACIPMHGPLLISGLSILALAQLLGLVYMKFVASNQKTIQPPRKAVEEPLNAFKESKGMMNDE

B1: bispecific antibody CTLA4-G9-LN (bispecific antibody)
light: EVQLVESGGGLVQPGGSLRLSCAASGYTYSRHCLGWFRQAPGKGREAVSTIDSDGSTSYADSVKGRFTISRDNAKNTLYLQMNSLRPEDTAVYYCAIGPNPRYCSGAPNTRGAEHYFGYWGQGTLVTVSSGGGGSGGGSEIVLTQSPATLSLSPGERATLSCRASENVGTYISWYQQKPGQAPRLLIYGASNRYTGIPARFSGSGSGTDFTLTISSLEPEDFAVYYCGESYGHLYTFGGGTKVEIKRTVAAPSVFIFPPSDEQLKSGTASVVCLLNNFYPREAKVQWKVDNALQSGNSQESVTEQDSKDSTYSLSSTLTLSKADYEKHKVYACEVTHQGLSSPVTKSFNRGEC
heavy: not shown
For the molecule B1, the EC50 (as a rule, the midpoint of the concentration-response curve) came out at 2.46 nM.

(Values after patent publication US20220332848A1 (published 2022).)
